Measurements: article PMC10272112 (Nature Communications, 2023)

Target: T1, HDAC8 (Homo sapiens, UniProt Q9BY41)
T1 sequence (Q9BY41 1-377): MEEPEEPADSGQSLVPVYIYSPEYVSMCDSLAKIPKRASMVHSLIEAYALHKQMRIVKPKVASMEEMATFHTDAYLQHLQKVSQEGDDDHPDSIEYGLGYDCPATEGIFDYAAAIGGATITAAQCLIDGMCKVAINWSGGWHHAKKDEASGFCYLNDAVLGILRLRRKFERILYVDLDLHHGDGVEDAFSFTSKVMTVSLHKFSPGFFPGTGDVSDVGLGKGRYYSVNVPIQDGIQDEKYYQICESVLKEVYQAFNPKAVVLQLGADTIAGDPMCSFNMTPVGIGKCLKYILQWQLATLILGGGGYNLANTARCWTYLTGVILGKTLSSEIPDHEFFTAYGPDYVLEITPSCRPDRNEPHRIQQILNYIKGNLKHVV
Assay: HDAC-Glo assay
Type: biochemical
Design: purchased BPS Bioscience 50008
Procedure: To validate the inhibition of HDACs by LA and LM and elaborate on the structure-activity relationship (SAR) of enantiomers as well as oxidized versus reduced forms of the molecules, we performed enzyme activity assays for recombinant HDAC1,2,3,6,8 as well as FRET-based binding assay for recombinant HDAC10. […] . To measure the potential dependence of HDAC inhibition on the redox state of the molecules, experiments were performed in the presence or absence of TCEP, a reducing agent with no effect on HDAC activity and HDAC inhibitor binding under the assay conditions (Supplementary Fig. 2a). […] . […] As observed in the chemoproteomic experiments, potent HDAC10 binding of (R/S)-LM could be confirmed. […] . […] This makes (S)-LA an ideal negative control for the assessment of which of the phenotypic effects elicited by lipoic acid are related to HDAC inhibition and which are related to other physicochemical properties of the molecule such as metal ion chelation or ROS scavenging.
The experiments were performed according to ref. [48]. HDAC6 and class I HDAC inhibition was tested using the HDAC-Glo™ I/II Assay and Screening System (G6421, Promega) with recombinant human HDACs (BPS Bioscience; HDAC1 cat. #50051; HDAC2 cat. #50002; HDAC3/NcoR2 complex cat. #50003; HDAC6 cat. #50006; HDAC8 cat. #50008). […] Luminescence was detected with a CLARIOstar (BMG Labtech) plate reader.

## O=C(CCCCCCC(=O)Nc1ccccc1)NO [Vorinostat]
  EC50: 923 nM
